Assay: Pharmacokinetics of ATO in plasma, single-dose three-period crossover study, ATO alone vs ATO–EZE combination
Type: in vivo, human
Details: ATO 80 mg coadministered with EZE 10 mg; bioequivalence-based hypothesis

Structure (SMILES): CC(C)c1c(C(=O)Nc2ccccc2)c(-c2ccccc2)c(-c2ccc(F)cc2)n1CC[C@@H](O)C[C@@H](O)CC(=O)O [ATO, Atorvastatin]
- pharmacokinetic drug–drug interaction (on ATO): no relevant pharmacokinetic drug–drug interaction

Source: article PMC4245888 (Frontiers in Pharmacology, 2014)
